For two compounds, IC50 results are on record in ChEMBL document CHEMBL1132024, “N-phosphonoalkyl-5-aminomethylquinoxaline-2,3-diones: in vivo active AMPA and NMDA(glycine) antagonists” (Bioorg Med Chem Lett, 1999).

The test deals with Glutamate NMDA receptor. Kind of test: In vitro inhibition of binding of [3H]MDL-105519 towards glycine binding site of NMDA receptor in rat.

The term IC50 denotes the concentration that inhibits the measured activity by half. A low value points to higher potency.

For `C[C@H](NCc1cc(Br)cc2nc(O)c(O)nc12)P(=O)(O)O`, the IC50 turned out to be 370 nM.

In turn, `C[C@@H](NCc1cc(Br)cc2[nH]c(=O)c(=O)[nH]c12)P(=O)(O)O` had an IC50 of 6 nM.
